Literature values as cited in patent US20240293585A1, “HIGH MOLECULAR WEIGHT ZWITTERION-CONTAINING POLYMERS” (Kodiak Sciences Inc., priority 0001, published 2024).

Assays:
[1] = for half life after intravenous administration / half life after subcutaneous administration: species not restated (monkeys in preceding sentence), 'can demonstrate'
[2] = mouse
[3] = route not stated

With “Avonex: Interferon beta (approximately 20 kDa), an unPEGylated form” as the substance, how does the “half-life after intramuscular injection” value ([1]; monkey, intramuscular) read?
The value was 10 h.

And the “mean terminal half life in monkeys after intravenous injection” value ([1]; monkey, intravenous)?
Its value is 5.5 h.

For “Interferon beta 40 kDa branched PEG: Interferon beta conjugated with a 40 kDa branched PEG polymer”, which “half life after intravenous administration” value ([1]; intravenous) is on record?
Its value is “thirty”.

And the “half life after subcutaneous administration” value [1]?
The value was “sixty”.

Which “half life after intravenous administration” value ([1]; intravenous) does the source give for “Interferon beta 40 kDa linear PEG: Interferon beta conjugated with a 40 kDa linear PEG polymer” here?
The value was “approximately fifteen”.

And the “half life after subcutaneous administration” value [1]?
The value was “thirty”.

Which results are given for “Pegasys: recombinant interferon alfa of approximately 19.5 kDa PEGylated with a 40 kDa branched PEG”?
murine elimination half life after subcutaneous injection [2]: approximately 50 hours; human half life [3]: ~80 h
